The record followed here is ChEMBL document CHEMBL5338786, “In Silico-Guided Rational Drug Design and Synthesis of Novel 4-(Thiophen-2-yl)butanamides as Potent and Selective TRPV1 Agonists” (J Med Chem, 2023).

The chains behind the UniProt entries cited, without tags or fusion partners.
UniProt Q6RI86, whole entry: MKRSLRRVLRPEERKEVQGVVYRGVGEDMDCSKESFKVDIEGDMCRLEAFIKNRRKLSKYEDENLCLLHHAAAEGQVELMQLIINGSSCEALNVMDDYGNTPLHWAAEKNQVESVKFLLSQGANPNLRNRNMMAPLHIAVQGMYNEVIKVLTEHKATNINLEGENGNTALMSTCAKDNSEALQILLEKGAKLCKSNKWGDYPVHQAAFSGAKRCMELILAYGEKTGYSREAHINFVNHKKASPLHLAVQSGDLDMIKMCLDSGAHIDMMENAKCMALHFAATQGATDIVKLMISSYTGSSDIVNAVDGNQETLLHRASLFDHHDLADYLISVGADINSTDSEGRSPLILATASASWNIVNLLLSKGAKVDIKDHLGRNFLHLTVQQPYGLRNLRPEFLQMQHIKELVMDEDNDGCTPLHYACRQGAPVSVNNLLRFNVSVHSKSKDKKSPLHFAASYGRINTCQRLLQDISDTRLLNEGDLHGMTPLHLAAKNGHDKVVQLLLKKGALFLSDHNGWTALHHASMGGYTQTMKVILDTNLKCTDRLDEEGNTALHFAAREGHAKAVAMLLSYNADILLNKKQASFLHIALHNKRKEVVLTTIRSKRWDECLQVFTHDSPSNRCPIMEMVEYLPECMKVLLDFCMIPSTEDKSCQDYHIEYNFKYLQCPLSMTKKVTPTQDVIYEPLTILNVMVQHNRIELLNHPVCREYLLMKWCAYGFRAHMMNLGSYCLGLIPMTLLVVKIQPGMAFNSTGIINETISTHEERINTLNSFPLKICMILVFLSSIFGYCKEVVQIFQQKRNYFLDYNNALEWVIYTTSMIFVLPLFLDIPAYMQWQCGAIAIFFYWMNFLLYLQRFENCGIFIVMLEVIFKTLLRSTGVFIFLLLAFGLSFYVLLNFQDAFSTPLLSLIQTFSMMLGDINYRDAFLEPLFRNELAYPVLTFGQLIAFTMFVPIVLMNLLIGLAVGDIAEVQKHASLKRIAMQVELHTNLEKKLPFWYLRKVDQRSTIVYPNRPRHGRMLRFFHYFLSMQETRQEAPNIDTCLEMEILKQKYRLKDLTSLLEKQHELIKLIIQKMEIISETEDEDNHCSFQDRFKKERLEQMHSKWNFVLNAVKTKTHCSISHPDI
UniProt Q9ERZ8, whole entry: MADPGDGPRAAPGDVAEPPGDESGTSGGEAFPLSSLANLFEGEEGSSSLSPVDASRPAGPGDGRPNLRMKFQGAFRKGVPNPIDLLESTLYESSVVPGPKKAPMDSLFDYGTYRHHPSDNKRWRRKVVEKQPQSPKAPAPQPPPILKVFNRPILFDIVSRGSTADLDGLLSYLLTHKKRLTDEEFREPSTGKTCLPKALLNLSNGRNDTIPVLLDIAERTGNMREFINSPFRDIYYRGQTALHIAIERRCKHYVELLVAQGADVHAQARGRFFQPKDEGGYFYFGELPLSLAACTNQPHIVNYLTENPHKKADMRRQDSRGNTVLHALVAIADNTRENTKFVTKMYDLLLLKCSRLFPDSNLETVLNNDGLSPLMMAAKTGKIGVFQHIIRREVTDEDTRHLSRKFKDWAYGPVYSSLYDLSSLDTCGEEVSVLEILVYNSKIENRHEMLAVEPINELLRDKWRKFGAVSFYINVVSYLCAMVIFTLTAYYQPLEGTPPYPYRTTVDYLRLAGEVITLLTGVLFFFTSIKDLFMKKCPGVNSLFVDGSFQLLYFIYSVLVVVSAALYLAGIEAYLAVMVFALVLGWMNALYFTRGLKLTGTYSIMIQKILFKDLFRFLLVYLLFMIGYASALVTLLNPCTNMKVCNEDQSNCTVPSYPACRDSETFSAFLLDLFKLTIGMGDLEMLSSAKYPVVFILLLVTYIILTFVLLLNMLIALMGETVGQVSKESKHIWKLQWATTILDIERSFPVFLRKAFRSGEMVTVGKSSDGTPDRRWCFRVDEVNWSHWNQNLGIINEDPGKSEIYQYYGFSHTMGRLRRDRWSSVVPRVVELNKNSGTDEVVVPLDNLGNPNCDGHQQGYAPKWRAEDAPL

Active and inactive are the calls of the source. The calls are words filed in the database; no cut-off is given here.

What all share (format): cell-based
Assay [1] deals with Transient receptor potential cation channel subfamily A member 1 (Rattus norvegicus) (UniProt Q6RI86). The assay can be described thus: Agonist activity at rat recombinant TRPA1 expressed in HEK293 cells assessed as increase in intracellular calcium accumulation by measuring efficacy by Fluo4-AM based assay relative to allyl isothiocyanate. (A change in cytosolic calcium serves as a functional read-out for many receptors and channels.)

The target is the same in assay [2]. The assay can be described thus: Agonist activity at rat recombinant TRPA1 expressed in HEK293 cells assessed as increase in intracellular calcium accumulation by Fluo4-AM based assay.
Assay [3] has as its target Transient receptor potential cation channel subfamily V member 4 (Rattus norvegicus) (UniProt Q9ERZ8). Description: Agonist activity at rat recombinant TRPV4 expressed in HEK293 cells assessed as increase in intracellular calcium accumulation by measuring efficacy by Fluo4-AM based assay relative to ionomycin.

For the compound `O=C(CCCc1ccc(I)s1)Nc1ccc(O)cc1`, the Efficacy in assay [1] (filed as agonist) was 134%.

For the compound `O=C(CCCc1ccccc1)NCc1ccc(O)cc1`, the Efficacy in assay [1] is below 10%. The outcome in assay [2] was inactive.

With `O=C(CCCc1cccs1)NCc1ccccc1`, in assay [1], the Efficacy is below 10%. Also, the outcome in assay [2] was inactive.

Regarding `O=C(CCCc1ccc(I)s1)NCc1ccc(O)cc1`, in assay [1], the Efficacy was below 10%. Further, in assay [2], the result was inactive.

With `COc1cc(CNC(=O)CCCc2ccccc2)ccc1O`, the Efficacy in assay [1] (filed as agonist) was 118%.

Consider `O=C(CCCc1ccc(-c2ccccc2)s1)Nc1ccc(O)cc1`, for which the Efficacy in assay [1] was below 10%. For the same compound, the outcome in assay [2] was inactive.

On to `O=C(CCCc1ccc(-c2cccnc2)s1)NCc1ccc(Cl)c(Cl)c1`, for which the Efficacy in assay [1] (filed as agonist) turned out to be 70.7%.

As for `COc1cc(CNC(=O)CCCc2ccc(-c3cccnc3)s2)ccc1O`, the Efficacy in assay [3] and in assay [1] was below 10% throughout. Also, the result in assay [2] was inactive.

For `O=C(CCCc1ccccc1)Nc1ccc(O)cc1`, the Efficacy in assay [1] was below 10%. Further, the result in assay [2] was inactive.

With `COc1cc(CNC(=O)CCCc2ccc(-c3ccccc3)s2)ccc1O`, the Efficacy in assay [3] is below 10%; in assay [1] (filed as agonist), 147%.

Turning to `O=C(CCCc1ccc(-c2ccccc2)s1)NCc1ccccc1`, the Efficacy in assay [1] was below 10%. Moreover, the result in assay [2] was inactive.

Turning to `COc1cc(CNC(=O)CCCc2ccc(I)s2)ccc1O`, the Efficacy in assay [3] and in assay [1] was below 10% throughout. For the same compound, in assay [2], the result was inactive.

In the case of `O=C(CCCc1ccc(-c2cccnc2)s1)Nc1ccc(O)cc1`, in assay [1], the Efficacy is below 10%. Besides, the outcome in assay [2] was inactive.

In the case of `O=C(CCCc1ccc(-c2cccnc2)s1)NCc1ccc(O)cc1`, in assay [1], the Efficacy turned out to be 31%.

For `O=C(CCCc1ccc(-c2ccccc2)s1)NCc1ccc(O)cc1`, in assay [1], the Efficacy is below 10%. Also, in assay [2], the outcome was inactive.

As to `COc1ccc(CNC(=O)CCCc2ccc(I)s2)cc1`, the Efficacy in assay [1] is below 10%. Moreover, the result in assay [2] was inactive.

As to `O=C(CCCc1ccc(I)s1)NCc1ccc(Cl)c(Cl)c1`, the Efficacy in assay [1] (filed as agonist) amounted to 90.5%.

On to `O=C(CCCc1ccc(-c2ccccc2)s1)NCc1ccc(Cl)c(Cl)c1`, for which the Efficacy in assay [1] (filed as agonist) came to 53.9%.

In the case of `O=C(CCCc1ccccc1)NCc1ccc(Cl)c(Cl)c1`, in assay [1] (filed as agonist), the Efficacy amounted to 102%.

For the compound `O=C(CCCc1ccc(I)s1)NCc1ccccc1`, the Efficacy in assay [1] is below 10%. The outcome in assay [2] was inactive.
